Experimental data taken from article PMC8595397, “Reproductive Regulation of PrRPs in Teleost: The Link Between Feeding and Reproduction” (Frontiers in Endocrinology, 2021).

Test system: PrRPs, GnRH2 and GnRH3 mRNA in grass carp brain cells
Assay: PrRPs and GnRH mRNA expression in primary brain cells
Format: cell-based
Settings: E2 1 μM, 24 h, mean

Compound: C[C@]12CC[C@@H]3c4ccc(O)cc4CC[C@H]3[C@@H]1CC[C@@H]2O [E2, seventeen β-estradiol]
- gnrh2 mRNA expression (CTR = 1): 1.02
